Data reported in ChEMBL document CHEMBL1158365, “Alkyne chemistry in crop protection” (2009).

Tests used:
Musca domestica [1] = test: Insecticidal activity against Musca domestica in presence of synergist piperonyl butoxide
Musca domestica [2] = test: Insecticidal activity against Musca domestica

Row | SMILES | LC50 (Musca domestica [1]) [µg/g] | LC50 (Musca domestica [2]) [µg/g]
1 | C#Cc1ccc(C23OCC(C(C)(C)C)(CO2)CO3)cc1 | 0.011 | 0.087
2 | CC(C)(C)C12COC(c3ccc(Br)cc3)(OC1)OC2 | 0.83 | 3.5
3 | CC(C)(C)C12COC(c3ccc(Cl)cc3)(OC1)OC2 | 1.5 | 10
4 | CC(C)(C)C12COC(c3ccc(C#N)cc3)(OC1)OC2 | 0.23 | 4.8
